# Yeast mating assay 1: variants of the scFv Ab-14

Values reported by Engelhart et al. 2022, doi:10.1038/s41597-022-01779-4 (FLAb copy).

Target peptide (SARS-CoV-2 spike, HR2 region): PDVDLGDISGINAS

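The parent was found by panning a naive human phage display library on the peptide. The library (AAYL50) carries one to three amino acid substitutions per variant, with no insertions or deletions. The assay is AlphaSeq: two haploid yeast populations carry antibody and antigen on their surface. Binding brings cells together so that they mate, and sequencing counts the barcode pairs among the diploids. Scores were corrected for input abundance and mapped to Kd with protein pairs of known affinity run in the same pool. Each pool was mated in three replicate cultures.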

Ab-14 is the parent antibody, in scFv form: VH, then three GGGGS repeats, then VL. The heavy chain is unchanged in all variants.
VH: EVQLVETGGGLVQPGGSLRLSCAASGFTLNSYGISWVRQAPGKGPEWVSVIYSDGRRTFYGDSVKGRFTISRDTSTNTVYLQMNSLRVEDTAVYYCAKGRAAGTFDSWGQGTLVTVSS
VL: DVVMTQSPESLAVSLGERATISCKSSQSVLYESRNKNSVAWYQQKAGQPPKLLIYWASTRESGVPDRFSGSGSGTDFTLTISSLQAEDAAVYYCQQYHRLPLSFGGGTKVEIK

Substitutions are numbered in sequence along the VL above, starting at 1 (not Kabat).
Values are apparent Kd, the geometric mean of the replicates that gave a signal; lower means stronger binding.
"no signal" marks a missing value. The strain was present, yet no cells mated with the target were sequenced in any replicate, which points to weak or no binding.
The list is sorted by this average, lowest first, undetected variants last.
In this assay the parent's reference entry averaged 4.4 nM; its copy inside this library read 48 nM.

Kd (apparent)	replicates with signal	changes
5.0 nM	3 of 3	S33G+R34I+K36Y
5.3 nM	3 of 3	R34D+A57F+Y97N
6.0 nM	3 of 3	Q27S+S28L+R34S
6.8 nM	3 of 3	V29W+W56R+Q95E
7.1 nM	3 of 3	V29T+L30A+R34A
8.1 nM	3 of 3	Q27R+L30F+H98Q
9.4 nM	3 of 3	K24Q+K36Q+T59Y
9.4 nM	3 of 3	K24T+K36M+Q96I
10 nM	3 of 3	V29P+R34Y+N35P
11 nM	3 of 3	E61C+S62K
15 nM	3 of 3	K24N+S25A+V29E
17 nM	3 of 3	Q27H+V39M+P101C
19 nM	3 of 3	Q96R+P101W
19 nM	3 of 3	Y31L+S33P+N37K
22 nM	3 of 3	S26G+V29K+P101E
26 nM	3 of 3	H98N+R99H+L100I
42 nM	3 of 3	K24N+N35K+T59R
73 nM	3 of 3	Y31H+S58W
88 nM	1 of 3	Q27H+L30P+S58Q
110 nM	3 of 3	S25K+E32C+L100I
140 nM	3 of 3	V29D+R60P+E61L
160 nM	2 of 3	E32T+S33V+K36N
170 nM	3 of 3	Y31M+S62M+H98C
190 nM	1 of 3	K24Y+K36N+S62W
210 nM	3 of 3	L30C+N37S+E61H
430 nM	2 of 3	K24N+K36H+L100F
450 nM	1 of 3	N35W+S38H+S103P
450 nM	3 of 3	K24L+L102I+S103Q
680 nM	1 of 3	K24C+L30R+S58M
740 nM	3 of 3	Y31R+Q95M+P101Q
890 nM	1 of 3	S26R+S28R+Q95L
1.2 µM	3 of 3	S33P+W56E+T59P
1.3 µM	1 of 3	N35R+Q95K+R99G
1.5 µM	3 of 3	S25K+T59R
1.6 µM	3 of 3	S25P+V29P+S58E
13 µM	1 of 3	R34F+N37K+S58M
28 µM	3 of 3	S62Q+R99Y+L100H
28 µM	1 of 3	L30P+A40H+Q96E
33 µM	2 of 3	K24W+Q27H+P101T
45 µM	1 of 3	N37I+H98L+L100F
68 µM	1 of 3	K24I+N37I+V39L
78 µM	1 of 3	S25H+T59D+L100V
95 µM	3 of 3	V39C+T59L
no signal	0 of 3	S38I+Q96D+P101I
no signal	0 of 3	Q27T+N37G+Q95A
no signal	0 of 3	Y31W+S58H+S62R
no signal	0 of 3	N37L+V39Q+Y97W
no signal	0 of 3	N37T+A40I+R99M
no signal	0 of 3	S26F+L30G+L100G
no signal	0 of 3	R34C+R60S+E61K
no signal	0 of 3	L30T+A40N+Q96V
no signal	0 of 3	E32V+L100T+S103D
no signal	0 of 3	V29F+T59R+P101D
no signal	0 of 3	S25P+L30Q+R60D
no signal	0 of 3	L30S+S62H+Y97A
no signal	0 of 3	S25P+A57P+Q96I
no signal	0 of 3	Y31F+S58Y+R60T
no signal	0 of 3	S26G+E32H+S38Y
no signal	0 of 3	S58T+R60Y+H98S
no signal	0 of 3	S25A+A40H+Q95K
no signal	0 of 3	S28E+V39Q+R60I

As a blank, each scFv also met three strains without target: over library AAYL50, 18% of these pairings were detected, typically at 15 µM and seldom below 970 nM.